Compound activity from PubChem BioAssay.
Hits are enriched below; roughly 13% of the tested compounds scored in any of these assays.
ALDH1A1 block: ALDH1A1 (human) enzyme inhibition; P00352; Purified ALDH1A1, NADH fluorescence, propionaldehyde substrate; Potency, µM (series often up to 75.3 µM), for the others: top-dose activity, negative = inhibition, hits mostly inhibitors; 7.3% of 220,000 active; AID 1030; active = well fitted inhibition curve with a large enough effect, not every such curve was filed as active; inconclusive = small, poorly fitted or top-dose-only effect, or another doubt; inactive = no such curve, though single readings can be large or run the other way;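 note: potency is the fitted concentration of half-maximal effect; plate controls were no enzyme wells and a reference inhibitor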
G9a inh: G9a (human) methyltransferase inhibition. Q96KQ7. 8.8% of 350,000 active. Potency, µM (series often up to 102 µM), for inactives: at the highest dose activity, negative = inhibition, usual class: inhibitors. G9a H3K9 monomethylation, AlphaScreen, 2 h; note: potency is the fitted concentration of half-maximal effect; % is set by controls: 0 for no effect and ±100 for the full control effect; nearly all actives have a fitted effect of over 75% in size
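Enzyme 20 nM + cpd, 15 min RT; add b-H3K9 pep 500 nM / SAM 20 uM; 2 h RT; anti-H3K9me1 Ab 0.5 ug/mL + SA donor / anti-rabbit acceptor beads 20 ug/mL each, 10 min; AlphaScreen read.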
miR-21 reporter: miR-21 reporter, rising signal | HeLa miR-21 FLuc reporter, luciferase, 48 h | Potency, µM (highest dose often 38.3 µM), for inactives: at the top dose reporter change, positive = more light | 340,000 tested, under 10 active | AID 2288; active = well fitted rising curve with a large enough effect; inconclusive = small, poorly fitted or top-dose-only effect; inactive = no such curve, though single readings can be large or run the other way;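 further: % of control where 0% means no effect; miR-21 action dims this reporter so a rising signal means less miR-21 action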
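Compounds were titrated across several concentrations (up to approximately 40 uM) and incubated 48 hours with HeLa miR-21-FLuc reporter cells (miR-21 target sequence downstream of FLuc, endogenous miR-21). Readout was firefly luciferase luminescence after lytic detection reagent.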
Sfp inh: inhibitors of Bacillus subtilis Sfp phosphopantetheinyl transferase. Q9F4F7. Biochemical Sfp PPTase activity, qHTS. Potency, µM, inactives show max response, negative = inhibition, most hits filed as inhibitors. 3.5% of 310,000 active. AID 1490; active = well fitted inhibition curve with a large enough effect; inconclusive = small, poorly fitted or top-dose-only effect, or another doubt; inactive = no such curve, though single readings can be large or run the other way;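 also: the enzyme is Sfp with the accession as filed and its product quenches rhodamine fluorescence; potency is read from the fitted curve at half-maximal effect; 0% = enzyme reaction without inhibitor and -100% = no enzyme wells; top concentration of the series not given in the record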
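With Hepes-Na pH 7.6 buffer containing 10 mM MgCl2, Sfp (15 nM) modified BHQ-2-YbbR (12.5 uM) using rhodamine-CoA (5 uM). Two reads 30 minutes apart at 525/598 nm yielded each well's rate.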
KDM4E inh: blocks human JMJD2E demethylase activity; JMJD2E catalytic domain, FDH-coupled NADH fluorescence (FDH is formaldehyde dehydrogenase); Potency, µM (highest dose often 57.1 µM), without a hit: at the top dose activity change, negative = inhibition, actives largely listed as inhibitors; 1.6% of 230,000 active; AID 2147; active = well fitted inhibition curve with a large enough effect, not every such curve was filed as active; inconclusive = small, poorly fitted or top-dose-only effect, or another doubt; inactive = no such curve, though single readings can be large or run the other way;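 note: potency is the fitted concentration of half-maximal effect; 0% = wells with enzyme and -100% = buffer wells without enzyme; nearly all actives have a fitted effect of over 50% in size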
LMNA splice mod: LMNA splicing modulation | HeLa LMNA splicing GFP/RFP minigene ratio, 48 h | Potency, µM (doses to about 46.1 µM), for the others: at the highest dose ratio change, negative = inhibition, hits mostly inhibitors | 0.01% of 200,000 active; active = well fitted inhibition curve with a large enough effect in the signal ratio, with a control signal flat, not every such curve was filed as active; inconclusive = small, poorly fitted or top-dose-only effect, or effect the other way, or a change in a side signal; the % refers to the signal ratio; note: potency is the fitted concentration of half-maximal effect; % is set by controls: 0 for no effect and ±100 for the full control effect
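S3 HeLa stable clones carrying a lamin A-EGFP splicing minigene plus DsRed2 were seeded at 600 cells/well in Opti-MEM with 2% FBS, pin-dosed and incubated 48 h at 37°C. Acumen cytometry (488 nm) gave the GFP/RFP total-intensity ratio.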
Numbers without * were called inactive; ! = not active in a repeat; [ ] = dose if it differs, or a comment. Unless noted, calls come from the whole dose curve; as a rule, active = well fitted curve in the direction sought with a large enough effect; inconclusive = small, poorly fitted or top-dose-only effect, or another doubt; inactive = no such curve, though single readings can be large; an effect the other way counts as inactive or inconclusive.

`COc1ccc(C2=NC3(CCCCCC3)N(CC(=O)Nc3ccc(C)c(C)c3)C2=O)cc1` gave G9a inh 3%[59 µM] and miR-21 reporter inconclusive.
For CCC[C@@H]1C[C@@]1(CCC)C(NC(=O)c1cccs1)c1ccc(Cl)cc1 (stereo partly specified) the results were ALDH1A1 block 9%, Sfp inh 24% and KDM4E inh 7%.
`Cn1c(SCC(=O)NNC(=S)Nc2ccccc2)nnc1-c1ccncc1` gave G9a inh 71µM*, miR-21 reporter 0%, Sfp inh 8% and KDM4E inh 6%.
O=C(CSc1nnc(-c2ccccc2)n1-c1ccc(Cl)cc1)NNC(=S)Nc1ccccc1 was read as ALDH1A1 block 16µM*, G9a inh 10µM*, miR-21 reporter -6%, Sfp inh 6%, KDM4E inh 3% and LMNA splice mod -16%.
C=CCn1c(SCC(=O)NNC(=S)Nc2ccccc2)nnc1-c1ccccc1 was read as G9a inh -19%[59 µM], miR-21 reporter -5%, Sfp inh 5% and KDM4E inh -1%.
Screening Cc1cccc(NC(=O)CSc2nnc(-c3ccncc3)n2C)c1 returned ALDH1A1 block -3%, G9a inh 34%, miR-21 reporter -1%, Sfp inh 12%, KDM4E inh -2% and LMNA splice mod 7%.
`CCn1c(SCC(=O)NNC(=S)Nc2ccccc2)nnc1-c1ccc(Cl)cc1` gave ALDH1A1 block -3%, G9a inh 20µM*, miR-21 reporter -3%, Sfp inh 13%, KDM4E inh 4% and LMNA splice mod -4%.
CCOc1ccccc1NC(=O)N(C)CCc1c(C)nn(CC)c1C was read as G9a inh 1%[59 µM], miR-21 reporter -21% and LMNA splice mod -6%[46 µM].
For COc1ccccc1NC(=O)c1sc2nc(-c3ccco3)ccc2c1N the results were ALDH1A1 block inconclusive, G9a inh 2.5µM*, miR-21 reporter -28%, Sfp inh -23%, KDM4E inh inconclusive and LMNA splice mod -5%.
For Nc1c(C(=O)Nc2cccc(Cl)c2Cl)sc2nc(-c3cccnc3)ccc12 the results were ALDH1A1 block 14%, G9a inh 89µM*, miR-21 reporter -13%, Sfp inh -1%, KDM4E inh 3% and LMNA splice mod -7%.
`COc1cccc(-c2ccc3c(N)c(C(=O)Nc4ccccc4C)sc3n2)c1` gave G9a inh -25%[59 µM], miR-21 reporter -20% and LMNA splice mod -17%[46 µM].
Nc1c(C(=O)Nc2ccccc2)sc2nc(-c3ccco3)ccc12 was read as ALDH1A1 block inconclusive, G9a inh 11µM*, miR-21 reporter -21%, Sfp inh 7.9µM*, KDM4E inh inconclusive and LMNA splice mod inconclusive.
Cc1ccccc1NC(=O)c1sc2nc(-c3ccncc3)ccc2c1N was read as G9a inh -5%[59 µM] and miR-21 reporter 27%.
Screening Cc1ccc(NC(=O)c2sc3nc(-c4ccncc4)ccc3c2N)cc1 returned G9a inh inconclusive and miR-21 reporter -19%.
For CC1CC(=O)N(c2ccc(Br)cc2)C(=O)C1 the results were miR-21 reporter 4%, Sfp inh 11% and KDM4E inh 16%.
Screening CCCOC(=O)c1cc(-c2ccc(C=O)o2)ccc1Cl returned ALDH1A1 block inconclusive, G9a inh inconclusive, miR-21 reporter -43%, Sfp inh -19%, KDM4E inh -14% and LMNA splice mod -17%.
NS(=O)(=O)c1ccc(-c2ccc(C=O)o2)cc1 was read as ALDH1A1 block -8%, G9a inh -42%, miR-21 reporter -1%, Sfp inh 12% and KDM4E inh inconclusive.
Screening C=CCOC(=O)c1cc(-c2ccc(/C=C3\C(=O)NC(=O)C(C#N)=C3C)o2)ccc1Cl returned ALDH1A1 block 10µM*, G9a inh 8.9µM*, miR-21 reporter -25%, Sfp inh 50µM*, KDM4E inh inconclusive and LMNA splice mod -8%.
Screening NS(=O)(=O)c1ccc(-c2ccc(/C=C3\NC(=S)NC3=O)o2)cc1 returned G9a inh 8.9µM*, miR-21 reporter 0% and Sfp inh 5.6µM*.
For CC1=C(C#N)C(=O)NC(=O)/C1=C/c1ccc(-c2ccc(S(N)(=O)=O)cc2)o1 the results were ALDH1A1 block inconclusive, G9a inh 8.9µM*, miR-21 reporter 8%, Sfp inh 79µM*, KDM4E inh inconclusive and LMNA splice mod inconclusive.

The final four records of the section before lead into the next:
NS(=O)(=O)c1ccc(-c2ccc(C=O)o2)cc1 was read as ALDH1A1 block -8%, G9a inh -42%, miR-21 reporter -1%, Sfp inh 12% and KDM4E inh inconclusive.
Screening C=CCOC(=O)c1cc(-c2ccc(/C=C3\C(=O)NC(=O)C(C#N)=C3C)o2)ccc1Cl returned ALDH1A1 block 10µM*, G9a inh 8.9µM*, miR-21 reporter -25%, Sfp inh 50µM*, KDM4E inh inconclusive and LMNA splice mod -8%.
Screening NS(=O)(=O)c1ccc(-c2ccc(/C=C3\NC(=S)NC3=O)o2)cc1 returned G9a inh 8.9µM*, miR-21 reporter 0% and Sfp inh 5.6µM*.
For CC1=C(C#N)C(=O)NC(=O)/C1=C/c1ccc(-c2ccc(S(N)(=O)=O)cc2)o1 the results were ALDH1A1 block inconclusive, G9a inh 8.9µM*, miR-21 reporter 8%, Sfp inh 79µM*, KDM4E inh inconclusive and LMNA splice mod inconclusive.
Cc1ccc(C(=O)Nc2ccc3c(c2)N(C)C(=O)c2ccccc2S3)cc1 was read as G9a inh -12%[59 µM], miR-21 reporter inconclusive and LMNA splice mod inconclusive.
COc1ccc(C2CC(O)(c3ccccc3)Oc3c(C)ccc(C(C)C)c32)cc1 (stereo unspecified) was read as Sfp inh 27%.
For Cc1ccc(NC(=O)CN2CCN(C)CC2)cc1Br the results were miR-21 reporter -6% and Sfp inh -34%.
Screening CCCCOc1ccc(NC(=O)CN2CCN(CC)CC2)cc1 returned G9a inh 11µM*, miR-21 reporter -11% and Sfp inh inconclusive.
`CCCCOc1ccc(C(=O)NC)cc1` gave ALDH1A1 block 0%, G9a inh 13%[12.7 µM], miR-21 reporter -28%, Sfp inh 4%, KDM4E inh 1% and LMNA splice mod 10%.
`CCCCOc1ccc(CC(=O)NO)cc1` gave ALDH1A1 block 2%, G9a inh 28µM*!, miR-21 reporter -4%, Sfp inh -2%, KDM4E inh inconclusive and LMNA splice mod inconclusive.
For CCN1CCN(CC(=O)Nc2ccc(C)c(Br)c2)CC1 the results were G9a inh 45µM*, miR-21 reporter -11% and Sfp inh inconclusive.
CCCCOc1ccc(NC(=O)CN2CCN(C(=O)OCC)CC2)cc1 was read as ALDH1A1 block inconclusive, G9a inh 2.5µM*, miR-21 reporter -1%, Sfp inh -27%, KDM4E inh inconclusive and LMNA splice mod -9%.
Screening CCOC(=O)N1CCN(CC(=O)Nc2ccc(C)cc2)CC1 returned ALDH1A1 block inconclusive, G9a inh 0%[59 µM], miR-21 reporter -11%, Sfp inh 12%, KDM4E inh 17% and LMNA splice mod 5%.
`CC(C)COC[C@H](CN(Cc1ccccc1)c1ccccc1)N1CCCC1` gave ALDH1A1 block 6%[20.9 µM], G9a inh inconclusive, Sfp inh 5%, KDM4E inh -2%[25.5 µM] and LMNA splice mod inconclusive.
Screening CC1CCc2c(sc(NC(=O)c3cc(-c4cccc(Cl)c4)on3)c2C(N)=O)C1 (stereo unspecified) returned G9a inh -25%[59 µM] and miR-21 reporter -6%.
`Cc1cc2c(=O)[nH]c(N)nc2nc1C` gave ALDH1A1 block 9%[13.5 µM].
